Values of other authors in patent US20220218838A1, “ADC FOR A TREATMENT CONCOMITANT WITH OR SUBSEQUENT TO DOCETAXEL” (PIERRE FABRE MEDICAMENT, priority 2019, published 2022).

Amino acid sequences for entries named in this document (tags omitted). Residues count along the entry.
UniProt P08069, 741-1367 partner limits assumed: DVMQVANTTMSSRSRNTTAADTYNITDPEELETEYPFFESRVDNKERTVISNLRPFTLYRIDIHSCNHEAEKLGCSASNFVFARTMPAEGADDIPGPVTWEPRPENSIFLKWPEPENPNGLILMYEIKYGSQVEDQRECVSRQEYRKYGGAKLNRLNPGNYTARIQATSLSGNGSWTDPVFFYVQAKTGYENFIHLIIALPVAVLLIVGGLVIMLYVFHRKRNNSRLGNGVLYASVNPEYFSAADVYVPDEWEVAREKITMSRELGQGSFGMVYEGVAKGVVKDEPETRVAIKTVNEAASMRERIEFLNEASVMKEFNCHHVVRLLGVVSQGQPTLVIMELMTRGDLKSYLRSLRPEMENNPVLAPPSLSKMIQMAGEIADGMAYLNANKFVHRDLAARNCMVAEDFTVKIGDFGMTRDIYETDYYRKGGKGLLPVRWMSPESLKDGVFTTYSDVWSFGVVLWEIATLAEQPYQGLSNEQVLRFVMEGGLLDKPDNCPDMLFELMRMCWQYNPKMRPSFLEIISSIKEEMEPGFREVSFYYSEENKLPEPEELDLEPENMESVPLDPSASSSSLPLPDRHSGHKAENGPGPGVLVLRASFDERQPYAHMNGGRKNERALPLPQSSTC
UniProt P08069, 31-736 limits assumed: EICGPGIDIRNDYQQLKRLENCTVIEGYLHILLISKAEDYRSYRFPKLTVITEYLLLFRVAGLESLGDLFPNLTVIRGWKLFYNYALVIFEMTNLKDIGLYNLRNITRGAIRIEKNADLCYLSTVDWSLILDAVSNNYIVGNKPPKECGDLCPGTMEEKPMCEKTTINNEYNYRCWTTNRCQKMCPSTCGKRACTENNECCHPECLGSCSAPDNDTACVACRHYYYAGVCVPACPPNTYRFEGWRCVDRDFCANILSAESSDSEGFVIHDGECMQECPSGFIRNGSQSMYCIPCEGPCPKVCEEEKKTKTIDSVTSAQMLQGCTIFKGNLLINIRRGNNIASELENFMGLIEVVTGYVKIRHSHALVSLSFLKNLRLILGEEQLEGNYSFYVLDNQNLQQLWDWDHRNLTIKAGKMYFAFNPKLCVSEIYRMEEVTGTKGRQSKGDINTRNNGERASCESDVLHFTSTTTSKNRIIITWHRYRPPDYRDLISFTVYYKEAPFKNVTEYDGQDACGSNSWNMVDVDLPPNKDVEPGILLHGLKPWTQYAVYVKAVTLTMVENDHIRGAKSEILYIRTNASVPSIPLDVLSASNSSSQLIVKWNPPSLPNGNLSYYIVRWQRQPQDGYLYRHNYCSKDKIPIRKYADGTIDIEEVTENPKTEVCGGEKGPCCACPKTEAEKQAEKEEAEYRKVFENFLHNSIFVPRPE

Molecular target: IGF-IR (Homo sapiens, UniProt P08069)
Conditions: read-out: Kd of binding to IGF-IR; cited from earlier work

For IGF1: natural ligand bound by IGF-IR, which Kd is on record?
Its Kd is about 1 nM.
